Assay results published in ChEMBL document CHEMBL5518245, “Development of an Imidazopyridazine-Based MNK1/2 Inhibitor for the Treatment of Lymphoma” (J Med Chem, 2024).
Activity calls are given as the source filed them. No cut-off for these calls is given here.

Amino acid sequences for entries named in this document (tags omitted). A change or cut given only in a name is not applied to a line headed by its entry.
UniProt Q13541: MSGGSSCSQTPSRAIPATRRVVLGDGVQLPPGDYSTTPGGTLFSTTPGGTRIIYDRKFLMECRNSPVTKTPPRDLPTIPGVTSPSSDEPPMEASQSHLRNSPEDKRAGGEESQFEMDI
UniProt P27361, whole entry, looked up: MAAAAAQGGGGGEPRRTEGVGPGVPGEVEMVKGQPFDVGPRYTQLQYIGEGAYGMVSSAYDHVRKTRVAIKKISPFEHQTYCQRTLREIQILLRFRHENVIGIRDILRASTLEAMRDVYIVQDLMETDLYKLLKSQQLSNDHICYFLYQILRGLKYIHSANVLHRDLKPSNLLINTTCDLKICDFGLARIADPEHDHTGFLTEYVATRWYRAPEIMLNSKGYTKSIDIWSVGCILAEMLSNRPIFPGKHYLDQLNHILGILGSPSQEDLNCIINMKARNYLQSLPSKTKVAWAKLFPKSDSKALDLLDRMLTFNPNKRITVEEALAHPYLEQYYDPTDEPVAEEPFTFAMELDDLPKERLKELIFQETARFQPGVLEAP
UniProt P28482, whole entry, looked up: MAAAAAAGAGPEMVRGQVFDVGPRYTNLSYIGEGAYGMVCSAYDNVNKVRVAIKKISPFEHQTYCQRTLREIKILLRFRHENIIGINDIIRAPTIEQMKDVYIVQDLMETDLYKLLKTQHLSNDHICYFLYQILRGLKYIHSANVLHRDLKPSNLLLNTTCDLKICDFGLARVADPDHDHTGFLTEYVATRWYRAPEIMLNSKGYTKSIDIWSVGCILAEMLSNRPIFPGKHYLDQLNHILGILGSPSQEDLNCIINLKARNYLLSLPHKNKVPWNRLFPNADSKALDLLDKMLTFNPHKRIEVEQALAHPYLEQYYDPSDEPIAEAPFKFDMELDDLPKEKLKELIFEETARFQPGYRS
UniProt P11309, whole entry, looked up: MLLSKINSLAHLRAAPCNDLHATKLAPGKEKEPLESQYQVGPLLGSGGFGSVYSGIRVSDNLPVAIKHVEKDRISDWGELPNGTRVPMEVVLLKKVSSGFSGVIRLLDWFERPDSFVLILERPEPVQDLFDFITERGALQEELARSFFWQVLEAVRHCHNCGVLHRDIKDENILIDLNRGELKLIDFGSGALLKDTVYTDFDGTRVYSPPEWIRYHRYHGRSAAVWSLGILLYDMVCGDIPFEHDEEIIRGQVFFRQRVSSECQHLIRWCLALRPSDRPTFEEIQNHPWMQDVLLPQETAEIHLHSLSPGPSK
UniProt P45983: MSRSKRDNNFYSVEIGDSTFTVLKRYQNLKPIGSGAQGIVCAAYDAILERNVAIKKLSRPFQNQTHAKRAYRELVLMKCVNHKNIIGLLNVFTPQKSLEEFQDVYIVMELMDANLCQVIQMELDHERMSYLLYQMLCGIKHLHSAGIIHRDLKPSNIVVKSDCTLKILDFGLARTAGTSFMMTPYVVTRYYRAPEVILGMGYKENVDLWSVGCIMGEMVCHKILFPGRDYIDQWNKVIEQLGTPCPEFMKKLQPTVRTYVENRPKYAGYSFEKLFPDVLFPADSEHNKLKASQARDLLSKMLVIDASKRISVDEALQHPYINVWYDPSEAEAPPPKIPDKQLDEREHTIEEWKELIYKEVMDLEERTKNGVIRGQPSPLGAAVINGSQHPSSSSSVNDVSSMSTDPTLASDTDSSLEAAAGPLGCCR
UniProt Q9P1W9: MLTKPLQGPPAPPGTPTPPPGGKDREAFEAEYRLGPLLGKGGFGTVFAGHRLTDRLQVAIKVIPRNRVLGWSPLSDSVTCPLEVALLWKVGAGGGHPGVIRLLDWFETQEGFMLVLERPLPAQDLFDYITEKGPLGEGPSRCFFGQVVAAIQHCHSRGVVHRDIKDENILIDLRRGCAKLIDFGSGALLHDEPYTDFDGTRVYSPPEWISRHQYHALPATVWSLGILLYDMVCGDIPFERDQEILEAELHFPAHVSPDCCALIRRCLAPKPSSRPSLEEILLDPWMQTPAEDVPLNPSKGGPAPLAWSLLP

Tests used:
[1] = molecular target: Mitogen-activated protein kinase 9 (Homo sapiens) (UniProt P45984); test: Inhibition of JNK2 (unknown origin) at 1 uM relative to control
[2] = molecular target: Eukaryotic translation initiation factor 4E-binding protein 1 (Homo sapiens) (UniProt Q13541); test: Inhibition of 4EBP1 phosphorylation in human A549 cells incubated for 24 hrs by Western blot analysis; assay type: cell-based; settings: dose 1.25-5 µM
[3] = molecular target: Dual specificity mitogen-activated protein kinase kinase 1 (Homo sapiens) (UniProt Q02750); test: Inhibition of MEK1 (unknown origin) at 1 uM relative to control
[4] = molecular target: Mitogen-activated protein kinase; ERK1/ERK2 (Homo sapiens) (UniProt P27361+P28482); test: Inhibition of ERK1/2 phosphorylation in human A549 cells at 1.25 to 5 uM incubated for 24 hrs by Western blot analysis; assay type: cell-based; settings: dose 1.25-5 µM
[5] = molecular target: Serine/threonine-protein kinase pim-1 (Homo sapiens) (UniProt P11309); test: Inhibition of PIM1 (unknown origin) at 1 uM relative to control
[6] = molecular target: Mitogen-activated protein kinase 8 (Homo sapiens) (UniProt P45983); test: Inhibition of JNK1 (unknown origin) at 1 uM relative to control
[7] = molecular target: Serine/threonine-protein kinase pim-2 (Homo sapiens) (UniProt Q9P1W9); test: Inhibition of PIM2 (unknown origin) at 1 uM relative to control
[8] = system: DOHH-2; test: Antitumor activity against human DOHH-2 cells xenografted in mouse at 3 mg/kg, po administered for 17 days; assay type: functional, organism-based; settings: time 17.0 day
[9] = molecular target: Eukaryotic translation initiation factor 4E-binding protein 1 (Homo sapiens) (UniProt Q13541); test: Inhibition of 4EBP1 phosphorylation in human A549 cells at 5 uM incubated for 24 hrs by Western blot analysis; assay type: cell-based

Row | SMILES | inhibition [1] | inhibition [2] | inhibition [3] | inhibition [4] | inhibition [5] | inhibition [6] | inhibition [7] | Activity [8] | inhibition [9]
1 | O=C(c1ccc(-c2ccc3ncc(-c4cc5ccccc5o4)n3n2)cc1)N1CCC(N2CCCCC2)CC1 | 61.4% | Dose-Dependent Effect | 9.97% | Active | 61.4% | 61.4% | 61.4% |  | 
2 | C=CC(=O)N1CCC[C@@H](n2nc(-c3ccc(Oc4ccccc4)cc3)c3c(N)ncnc32)C1 |  |  |  |  |  |  |  | Active | 
3 | N[C@H]1CCCN(C(=O)c2ccc(-c3ccc4ncc(-c5cc6ccccc6o5)n4n3)cc2)C1 | 61.4% |  | 13% | Active | 61.4% | 61.4% | 61.4% |  | 
4 | Cc1cc(Nc2cc(N)ncn2)c(=O)n2c1C(=O)NC21CCCCC1 [TOMIVOSERTIB] |  |  |  |  |  |  |  |  | inactive
